Biological target: hCB1 receptor (Homo sapiens, UniProt P21554)
Test: Test IV: CB1 functional assay ([35S]GTPγS binding)
Type: biochemical
Set-up: purchased Receptor Biology Inc RBhCB1 382200; host or cells: HEK293 cells, membrane preparation

Protein sequences, listed by entry. Tags and fused reporters are not part of them.
UniProt P21554, whole entry: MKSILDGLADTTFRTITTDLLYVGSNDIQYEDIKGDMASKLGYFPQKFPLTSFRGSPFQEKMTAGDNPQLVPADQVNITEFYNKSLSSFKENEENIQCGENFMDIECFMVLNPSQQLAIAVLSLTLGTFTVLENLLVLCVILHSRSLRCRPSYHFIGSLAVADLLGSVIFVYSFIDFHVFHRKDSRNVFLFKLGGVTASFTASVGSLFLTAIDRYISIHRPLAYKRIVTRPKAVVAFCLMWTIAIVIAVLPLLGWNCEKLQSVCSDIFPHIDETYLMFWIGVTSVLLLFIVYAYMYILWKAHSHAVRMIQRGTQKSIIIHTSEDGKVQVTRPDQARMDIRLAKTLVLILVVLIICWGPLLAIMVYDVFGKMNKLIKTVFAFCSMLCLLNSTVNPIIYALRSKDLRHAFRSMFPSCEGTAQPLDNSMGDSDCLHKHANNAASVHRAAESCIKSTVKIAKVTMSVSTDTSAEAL

SMILES: CCOC(=O)c1c(C)cc2nc(COC(=O)NCCO)n(-c3ccccc3S(=O)(=O)NC)c(=O)c2c1C [Example 2, 2-(2-Hydroxy-ethylcarbamoyloxymethyl)-5,7-dimethyl-3-(2-methylsulfamoyl-phenyl)-4-oxo-3,4-dihydro-quinazoline-6-carboxylic acid ethyl ester]
- Emax: 117 ± 5%
